This passage reports Potency results from PubChem BioAssay AID540317 (National Center for Advancing Translational Sciences (NCATS), 2011).

The chains behind the UniProt entries cited, without tags or fusion partners.
UniProt P83916, whole entry, looked up: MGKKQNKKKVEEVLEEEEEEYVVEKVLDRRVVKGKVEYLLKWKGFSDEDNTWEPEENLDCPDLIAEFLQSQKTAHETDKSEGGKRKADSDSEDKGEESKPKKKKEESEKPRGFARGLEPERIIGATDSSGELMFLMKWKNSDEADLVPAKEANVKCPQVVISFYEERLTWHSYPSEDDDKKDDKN

The entries are a selection whose mix differs from that of the whole data set. Records with an inconclusive call do not appear. A call without a number means that no potency is given here. Activity calls are given as the source filed them. Calls follow the shape of the dose curve; as a rule, active = well fitted inhibition curve with a large enough effect; inconclusive = small, poorly fitted or top-dose-only effect; inactive = no such curve, though single readings can be large or run the other way.
Potency is read from the fitted curve at half-maximal effect.

The target in this assay is Chromobox protein homolog 1 (Homo sapiens) (UniProt P83916). Kind of assay: HTS for Inhibitors of HP1-beta Chromodomain Interactions with Methylated Histone Tails. Also: nearly all actives have a fitted effect of over 70% in size. The note with it: AlphaScreen HP1-beta / biotin-H3K9me3 peptide binding; series mostly up to 114 µM. For orientation: Alpha assays give light when donor and acceptor beads are brought close together.
Take `CN(C)C1(CNC(=O)c2ccc(S(C)(=O)=O)cc2)CCCCC1`: the Potency result was “inactive”.

In the case of `O=C(/C=C/c1ccccc1)OC1CN2CCC1CC2` (configuration not stated), the Potency entry was “inactive”. The same measure for `CCCC1OP(=O)(Nc2ccccc2)OCC1CC` (configuration not stated): “inactive”; for `Cc1nn(-c2ccccc2)c2c1P(=O)(N1CCOCC1)N(C)C(c1ccccc1)=N2` (configuration not stated): “inactive”; for `CC1CCC(C(C)C)C(OP(=O)(Nc2ccccn2)c2ccccc2)C1` (configuration not stated): “inactive”. The same measure for `Cc1ccc(C(=O)OC2CN3CCC2CC3)cc1` (configuration not stated): “inactive”. The same measure for `Nc1cccc([As](=O)(O)c2ccccc2)c1`: “inactive”; for `Cc1ccc(OCC(=O)OC2CN3CCC2CC3)cc1` (configuration not stated): “inactive”; for `O=[As](O)(c1cccs1)c1cccs1`: “inactive”.

As to `O=P1(Nc2ccc(Br)cn2)COc2ccccc2OC1`, the Potency result is “inactive”. The same measure for `NS(=O)(=O)c1cccc(NC(=O)COC(=O)C(O)(c2ccccc2)c2ccccc2)c1`: “inactive”; for `O=P1(Nc2ncccn2)COc2ccccc2OC1`: “inactive”. The same measure for `Clc1n[nH]nc1-c1nn[nH][15n]1`: “inactive”. To `CC(C)(C)C(=O)NC(Sc1ncccn1)C(Cl)(Cl)Cl` (configuration not stated) belongs “inactive”; to `O=P1(Nc2ccccn2)COc2ccccc2OC1`, “inactive”; to `CCC1=CC2Cc3nc4ccc(Cl)cc4c(N)c3C(C1)C2` (configuration not stated), “inactive”. With `CCOP(=O)(NC(=NC(C)c1ccccc1)NC(C)c1ccccc1)OCC` (configuration not stated), the Potency result is “inactive”. To `CCOP(=O)(Nc1ccc(C)cn1)OCC` belongs “inactive”; to `CN(CCCl)Cc1cc(Cl)c(NC2=NCCN2)c(Cl)c1`, “inactive”; to `CC(C)/C=N\N=C(\N)N[N+](=O)[O-]`, “inactive”. To `CN(C(=O)Cc1ccc(Cl)c(Cl)c1)[C@@H]1CCCC[C@H]1N1CCCC1` belongs “inactive”; to `CC1(CBr)Cn2c(nc3ccccc3c2=O)S1` (configuration not stated), “inactive”. For `COc1ccccc1CNC(=O)COC(=O)C(O)(c1ccccc1)c1ccccc1`, the Potency entry was “inactive”.

As for `Cc1cccc(OCC(=O)OC2CN3CCC2CC3)c1` (configuration not stated), the Potency result was “inactive”. To `O=[As](O)(c1cccc(O)c1)c1cccc(O)c1` belongs “inactive”; to `O=C(OC1CN2CCC1CC2)c1ccc(Cl)cc1` (configuration not stated), “inactive”.

Take `O=[As](O)(O)c1cccnc1`: the Potency entry is “inactive”. To `COc1cc(C(=O)NCC2(N3CCOCC3)CCCCC2)cc(Cl)c1OC(C)C` belongs “inactive”; to `CS(=O)(=O)c1ccc(Cl)c(NC(=O)COC(=O)C(O)(c2ccccc2)c2ccccc2)c1`, “inactive”; to `COc1cc(C2NCCC3(OCCO3)C2(C)C)cc(OC)c1OC` (configuration not stated), “inactive”. In the case of `CCOP(=O)(Nc1cccc2ccccc12)OCC`, the Potency entry was “inactive”. To `Nc1cccc2c([As](=O)(O)O)cccc12` belongs “inactive”; to `CCCOP(=S)(Nc1nc(N)cc(=O)[nH]1)OCCC`, “inactive”; to `Nc1ccccc1[As](=O)(O)c1ccccc1`, “inactive”. To `O=C(O)COc1ccc([As](=O)(O)O)cc1[N+](=O)[O-]` belongs “inactive”; to `CCOP1(=S)c2c(C)nn(CCC#N)c2N=C(c2ccccc2F)N1C` (configuration not stated), “inactive”. Take `O=P(Nc1nccs1)(Oc1ccccc1)Oc1ccccc1`: the Potency result is “inactive”. To `O=P(Nc1nccs1)(c1ccccc1)c1nc2ccccc2s1` (configuration not stated) belongs “inactive”; to `CS(=O)(=O)c1cc([N+](=O)[O-])c2no[n+]([O-])c2c1`, active: 8.91 µM; to `N#CCCN(C(=O)COC(=O)C(O)(c1ccccc1)c1ccccc1)c1ccc(F)cc1`, “inactive”.

`CN(C(=O)Cc1ccccc1)[C@@H]1CC[C@]2(CCCO2)C[C@H]1N1CCCC1`: the Potency result is “inactive”. To `CCOP1(=S)c2c(C)nn(CCC#N)c2N=C(c2ccc(F)cc2)N1C` (configuration not stated) belongs “inactive”; to `O=[N+]([O-])c1ccc2c(c1)nnn2O`, “inactive”. The same measure for `CN(C)C(=O)c1cc([N+](=O)[O-])cc2c1-c1c(cc([N+](=O)[O-])cc1[N+](=O)[O-])C2=O`: “inactive”; for `CN(C(=O)Cc1ccc(Cl)c(Cl)c1)[C@H]1CC[C@@]2(CCCO2)C[C@@H]1N1CCCC1`: “inactive”. With `NC(=O)Nc1ccc([As](=O)(O)O)cc1`, the Potency entry was “inactive”. With `Cc1ccc(OP(=O)(Nc2ccc([N+](=O)[O-])cn2)Oc2ccc(C)cc2)cc1`, the Potency result is “inactive”. The same measure for `Cc1ccc2nc3c(c(C)c2c1)CC(C(Cl)Cl)S3` (configuration not stated): “inactive”. The same measure for `C[As](=O)(O)c1cccc(C(=O)O)c1`: “inactive”.

For the molecule `O=[As](O)(c1ccc(O)cc1)c1ccccc1O`, the Potency entry is “inactive”.

Take `COc1cc(C(=O)NCC2(N3CCOCC3)CCCCC2)ccc1OCC(C)C`: the Potency result is “inactive”. On to `CC(C)NC(=O)NP(=O)(Oc1ccccc1)Oc1ccccc1`, for which the Potency result is “inactive”. To `O=C(OC1CN2CCC1CC2)c1cccc2[nH]cnc12` (configuration not stated) belongs “inactive”. The same measure for `O=[N+]([O-])c1cc([N+](=O)[O-])c(-c2ccn[nH]2)s1`: “inactive”; for `ClCCSc1nnc(-c2cccnc2)o1`: “inactive”; for `COC(=O)C1(C)COP(=O)(N2CCCCCC2)OC1` (configuration not stated): “inactive”. The same measure for `CC(C)c1ccc(OP(=O)(Nc2ccccn2)Oc2ccccc2F)cc1` (configuration not stated): “inactive”. As to `O=P1(N(CCCl)CCCl)OCCCN1CCCl` (configuration not stated), the Potency result was “inactive”.

For `O=P1(N(CCCl)CCCl)Nc2ccccc2N1`, the Potency result is “inactive”.

Take `COc1ccc2nc(NP(=O)(c3ccccc3)c3ccccc3)sc2c1`: the Potency entry is “inactive”.

With `COc1cc(I)ccc1[As](=O)(O)O`, the Potency entry was “inactive”.

Consider `Cc1c2c(nc3ccccc13)SC(C(Cl)Cl)C2` (configuration not stated), for which the Potency result is “inactive”. To `O=C(OC1CN2CCC1CC2)C12CC3CC(CC(C3)C1)C2` (configuration not stated) belongs “inactive”; to `Cc1cc(=O)[nH]c(N[N+](=O)[O-])n1`, “inactive”. The same measure for `COc1ccc(N/C(=N/P(=O)(N2CCOCC2)N2CCOCC2)N2CCOCC2)cc1`: “inactive”; for `O=C(COc1ccccc1)OC1CN2CCC1CC2` (configuration not stated): “inactive”.

Turning to `O=C(Nc1ccncc1[N+](=O)[O-])c1ccc([N+](=O)[O-])cc1[N+](=O)[O-]`, the Potency entry was “inactive”.

Turning to `COP1(=S)c2c(C)nn(CCC#N)c2N=C(c2ccc(F)cc2)N1C` (configuration not stated), the Potency entry was “inactive”. `CCC(C)N(CC(C)C)C(=S)SC(NC(C)=O)C(Cl)(Cl)Cl` (configuration not stated): the Potency result was “inactive”. The same measure for `CCOP(=O)(Nc1cccc2cccnc12)OCC`: “inactive”. To `O=C(OC1CN2CCC1CC2)c1cccc([N+](=O)[O-])c1` (configuration not stated) belongs “inactive”; to `CCOC(=O)c1ccc(NC(=O)C(C)(CCl)SC)cc1` (configuration not stated), “inactive”; to `CCCCOc1ccc(C(=O)NCC2(N3CCCCC3)CCCCC2)cc1OC`, “inactive”. Turning to `CCOC(=O)Nc1ccc([As](=O)(O)O)c(O)c1`, the Potency entry is “inactive”.

Consider `CC1CCNP(=O)(N(CCCl)CCCl)O1` (configuration not stated), for which the Potency result was “inactive”. For the molecule `O=P(Nc1ccccn1)(c1cccc2ccccc12)c1cccc2ccccc12`, the Potency entry was “inactive”. The same measure for `Cc1cc(SC(NC=O)C(Cl)(Cl)Cl)ncn1` (configuration not stated): active: 17.8 µM.
